The source of these data is patent US20090233958A1, “(+)-BELOXEPIN AND METHODS FOR ITS SYNTHESIS AND USE” (priority 2008, published 2009).

Chains of the proteins cited; added tags and fusions are not shown.
UniProt P23975, whole entry: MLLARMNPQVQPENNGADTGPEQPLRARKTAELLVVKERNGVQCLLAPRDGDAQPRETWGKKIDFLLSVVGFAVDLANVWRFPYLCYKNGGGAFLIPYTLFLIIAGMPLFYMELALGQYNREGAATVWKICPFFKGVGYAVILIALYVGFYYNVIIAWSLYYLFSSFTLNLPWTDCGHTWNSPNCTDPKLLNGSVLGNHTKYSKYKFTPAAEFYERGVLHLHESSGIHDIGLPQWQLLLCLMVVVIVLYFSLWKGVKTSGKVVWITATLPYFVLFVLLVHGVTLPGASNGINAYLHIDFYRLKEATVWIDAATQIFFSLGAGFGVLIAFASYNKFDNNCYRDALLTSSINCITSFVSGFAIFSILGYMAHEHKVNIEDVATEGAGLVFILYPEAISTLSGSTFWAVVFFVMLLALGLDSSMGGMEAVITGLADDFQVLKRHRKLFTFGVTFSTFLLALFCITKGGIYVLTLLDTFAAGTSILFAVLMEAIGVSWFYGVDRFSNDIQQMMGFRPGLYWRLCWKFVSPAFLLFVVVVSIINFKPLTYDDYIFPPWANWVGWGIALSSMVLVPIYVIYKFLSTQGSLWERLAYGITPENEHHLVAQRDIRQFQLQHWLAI
UniProt P10635, whole entry: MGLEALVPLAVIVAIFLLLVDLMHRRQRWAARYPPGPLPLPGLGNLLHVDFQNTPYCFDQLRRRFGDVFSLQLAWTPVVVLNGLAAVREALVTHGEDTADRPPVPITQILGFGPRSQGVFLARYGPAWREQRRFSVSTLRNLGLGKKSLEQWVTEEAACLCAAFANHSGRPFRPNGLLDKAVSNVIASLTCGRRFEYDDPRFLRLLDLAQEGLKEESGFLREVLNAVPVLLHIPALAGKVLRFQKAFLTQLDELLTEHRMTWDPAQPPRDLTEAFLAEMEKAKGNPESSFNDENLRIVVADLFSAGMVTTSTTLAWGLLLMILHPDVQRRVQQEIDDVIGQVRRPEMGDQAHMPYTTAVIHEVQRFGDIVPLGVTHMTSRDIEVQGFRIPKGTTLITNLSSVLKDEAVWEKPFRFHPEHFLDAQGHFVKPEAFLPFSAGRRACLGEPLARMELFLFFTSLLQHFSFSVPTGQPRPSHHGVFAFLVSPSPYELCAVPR

Data set [1] concerns other monoamine carriers (serotonin and dopamine transporters). The note with it: synaptosomes from rat and primate brain; Sperling & Demling 1997; cited from earlier work.
In data set [2] the target is T1, human NE transporter (hNET) (Homo sapiens, UniProt P23975).
T1 construct: expressed in transfected cells; host or cells: CHO cells (membranes)
The experiment in a line: NE transporter binding assay ([3H]nisoxetine). The note with it: ratio versus (+) enantiomer. On the procedure:
Protocols. For the NE transporter binding assay, [^3H]nisoxetine (1.0 nM) was incubated with various concentrations of test compounds for 2 hours at 4° C. with membranes prepared from Chinese hamster ovary cells (CHO) cells heterologously expressing the cloned human NE transporter (hNET). Bound radioactivity was determined by scintillation spectroscopy.

The next data set has as its target T2, human recombinant CYP2D6 (Homo sapiens, UniProt P10635).
T2 construct: purchased BD Bioscience
The experiment in a line: CYP2D6 inhibition, MAMC substrate, recombinant microsomes. Type of data set: in vitro ADME. The settings on record: ratio versus (−) enantiomer. On the procedure: Protocol. […] The source of the enzyme was microsomes containing human recombinant CYP2D6 obtained from BD Bioscience. Conversion of MAMC to 7-hydroxy-4-(aminomethyl)coumarin was measured using a PerkinElmer Fusion with a 390 nm excitation filter and a 460 nm emission filter.

Each structure is given as a SMILES string.

As for `Cc1cccc2c1Oc1ccccc1C1(O)CCN(C)CC21` (racemic) [(±)-beloxepin, cis-1,2,3,4,4a,13b-hexahydro-2,10-dimethyldiben-[2,3:6,7]oxepino[4,5c]pyridine-4-a-ol]], the “fold less affinity for other monoamine carriers than for noradrenaline reuptake” value in data set [1] is on record as “greater than 100 fold”.
On to `Cc1cccc2c1Oc1ccccc1C1(O)CCN(C)CC21` (single isomer, unassigned; (-)) [(−)-beloxepin], for which the “NET affinity, fold higher than the (+) enantiomer” value in data set [2] is listed as “approximately 8 fold”.
As for `Cc1cccc2c1Oc1ccccc1C1(O)CCN(C)CC21` (single isomer, unassigned; (+)) [(+)-beloxepin], the “CYP2D6 inhibition, fold more active than the (−) enantiomer” value at human recombinant CYP2D6 was “approximately 18 fold”.
